Tests used:
Conditions in all cases: Table 1, experimental; tested form: inner salt (zwitterion) as drawn
[1] = system: NCI-H460 (lung large cell); test: NCI-H460 cell growth inhibition (MTT); assay type: cell-based, human
human DPPS = human DPPS (Homo sapiens, UniProt Q5T2R2); test: human DPPS enzyme inhibition; assay type: biochemical
[2] = system: MCF-7 (breast adenocarcinoma); test: MCF-7 cell growth inhibition (MTT), incl. FOH/GGOH rescue; assay type: cell-based, human

By UniProt entry, the sequences of proteins in these tests, tags left out.
UniProt Q5T2R2, whole entry: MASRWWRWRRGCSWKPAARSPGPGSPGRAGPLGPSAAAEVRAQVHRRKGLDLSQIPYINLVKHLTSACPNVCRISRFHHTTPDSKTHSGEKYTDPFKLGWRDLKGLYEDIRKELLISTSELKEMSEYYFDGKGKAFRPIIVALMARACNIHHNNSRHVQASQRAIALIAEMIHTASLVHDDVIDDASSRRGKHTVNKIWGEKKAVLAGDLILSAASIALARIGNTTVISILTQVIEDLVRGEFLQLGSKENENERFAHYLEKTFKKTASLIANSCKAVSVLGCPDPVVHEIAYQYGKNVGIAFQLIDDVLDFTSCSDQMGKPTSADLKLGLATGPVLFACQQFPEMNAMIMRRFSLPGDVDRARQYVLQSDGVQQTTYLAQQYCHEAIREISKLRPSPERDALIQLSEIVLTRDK
UniProt Q86YH6, whole entry partner: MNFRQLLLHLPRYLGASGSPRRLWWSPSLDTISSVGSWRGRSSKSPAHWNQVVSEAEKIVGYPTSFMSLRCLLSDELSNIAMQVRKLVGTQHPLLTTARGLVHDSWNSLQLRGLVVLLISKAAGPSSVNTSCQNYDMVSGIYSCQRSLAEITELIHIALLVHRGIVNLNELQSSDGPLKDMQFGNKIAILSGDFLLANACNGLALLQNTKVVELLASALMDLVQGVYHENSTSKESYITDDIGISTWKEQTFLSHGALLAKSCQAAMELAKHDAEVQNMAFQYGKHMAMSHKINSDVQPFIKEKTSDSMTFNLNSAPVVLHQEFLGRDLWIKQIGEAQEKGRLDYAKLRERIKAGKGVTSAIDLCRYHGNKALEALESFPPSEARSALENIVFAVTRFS

CCCCCCC#Cc1ccc[n+](CC(P(=O)([O-])O)P(=O)(O)O)c1 (stereo not drawn)
NCI-H460 pIC50 (M) [1]: 6.0 M | DPPS_pKi (human DPPS): 7.0 M | MCF-7 pIC50 (M) [2]: 5.3 M
